The values below come from ChEMBL document CHEMBL3272097, “Intramolecular hydrogen bonding and conformational studies of bridged thebaine and oripavine opiate narcotic agonists and antagonists” (1979).

The experiment deals with Opioid receptors; mu/kappa/delta (Homo sapiens) (UniProt P41145+P41143+P35372). The experiment in a line: Displacement of [3H]naloxone from opioid receptor (unknown origin) relative to nalorphine.

`CO[C@]12C=C[C@@]3(CC1C(C)(C)O)[C@H]1Cc4ccc(O)c5c4[C@@]3(CCN1CC1CC1)[C@H]2O5` (some centres not stated) had a fold change (FC) of 50.

With `C=CCN1CC[C@]23c4c5ccc(O)c4O[C@H]2[C@@]2(OC)C=C[C@@]3(CC2C(C)(C)O)[C@H]1C5` (some centres not stated), the fold change (FC) is 2.
